Tests used:
Homo sapiens [1] = species on record: Homo sapiens; test: Selectivity ratio, ratio of IC50 for caspase-8 (unknown origin) to IC50 for His-tagged human MALT1 (catalytic domain-339-719 aa)
Homo sapiens [2] = species on record: Homo sapiens; test: Selectivity ratio, ratio of IC50 for cathepsin B (unknown origin) to IC50 for His-tagged human MALT1 (catalytic domain-339-719 aa)

CC1(C)CCC2=C(O1)c1ccc(C#N)cc1C(=O)C2=O
Ratio IC50 (Homo sapiens [1]): 16
Ratio IC50 (Homo sapiens [2]): 16
